Test results reported in patent publication US20100240720A1, “ALLOSTERIC JNK INHIBITORS” (Burnham Institute for Medical Research, priority 2009, published 2010).

By UniProt entry, the sequences of proteins in these tests, tags left out. Where a name states a change or a piece, a line headed by the entry shows the natural chain unless it says otherwise.
UniProt P45983: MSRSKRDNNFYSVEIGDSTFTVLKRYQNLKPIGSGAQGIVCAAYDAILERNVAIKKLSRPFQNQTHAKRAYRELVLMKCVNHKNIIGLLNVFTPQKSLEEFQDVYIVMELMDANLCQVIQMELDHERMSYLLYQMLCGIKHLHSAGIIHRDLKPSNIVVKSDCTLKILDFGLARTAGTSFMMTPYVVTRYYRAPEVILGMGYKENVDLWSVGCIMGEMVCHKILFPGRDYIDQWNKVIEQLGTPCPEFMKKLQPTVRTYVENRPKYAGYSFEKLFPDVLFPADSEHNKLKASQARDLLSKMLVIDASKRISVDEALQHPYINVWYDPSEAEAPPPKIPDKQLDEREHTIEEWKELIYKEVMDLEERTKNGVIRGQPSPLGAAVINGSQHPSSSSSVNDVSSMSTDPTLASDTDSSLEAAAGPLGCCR

Target: JNK kinase (Homo sapiens, UniProt P45983)
Experiment: Lantha Screen Kinase Activity Assay
Assay type: biochemical

COc1ccc(C)cc1CC(=O)Nc1sccc1C(N)=O
IC50: 2300 nM
